Tested on: T. brucei brucei bloodstream form parasites (strain Lister 427)
Assay: Antitrypanosomal activity assay (resazurin; FIG. 2)
Assay type: cell-based
Details: 66 h + 6 h resazurin
Protocol: (A) The trypanosoma cell count and growth were evaluated at different doses of compounds of the invention.
Antitrypanosomal activity was tested on T. brucei brucei bloodstream from parasites (strain—Lister 427, VATMITat 1.2). Stock solutions of compounds (50 mM) were prepared in DMSO. Two fold serial dilutions of each compound (10 wells in each row) were prepared in 96 well plates in HMI111 medium (100 μl/well; quadruplicates; cf. also Hirumi et al., J. Parasitol. 75 (1989), 985-989). One well without compound, and one well with media alone were included in each row. […] The plates were incubated for 66 hours at 37° C. in the incubator with 5% CO2. 20 μl resazurin (Sigma, 0.125 mg/ml in Hanks Balanced Salt Solution) was added to all wells and the plate was further incubated for 6 hours. Change in color of resazurin (blue to pink) by living cells was measured with a 96 well plate reader (excitation at 530 nm, emission at 585 nm, filter cut-off: 570 nm). Percent inhibition values were calculated by setting the well without compound to “0% inhibition”.

## COc1ccc2c(OC)ccc(CN3CCc4c(c(C(=O)NCc5cccc6ccccc56)nn4CCO)C3)c2c1 [Compound 111]
  IC50: 4.05 µM
